Laboratory results published in PubChem BioAssay (NCATS).
This is a selection; strong and weak results do not stand in their true shares. Inconclusive results are not listed. Active and inactive are the calls of the source. Unless noted, the call rests on the fitted dose curve; in most records, active means well fitted curve in the direction sought with a large enough effect; inconclusive means small, poorly fitted or top-dose-only effect, or another doubt; inactive means no such curve, though single readings can be large; an effect the other way counts as inactive or inconclusive.

By UniProt entry, the sequences of proteins in these tests, tags left out.
UniProt P08684, whole entry: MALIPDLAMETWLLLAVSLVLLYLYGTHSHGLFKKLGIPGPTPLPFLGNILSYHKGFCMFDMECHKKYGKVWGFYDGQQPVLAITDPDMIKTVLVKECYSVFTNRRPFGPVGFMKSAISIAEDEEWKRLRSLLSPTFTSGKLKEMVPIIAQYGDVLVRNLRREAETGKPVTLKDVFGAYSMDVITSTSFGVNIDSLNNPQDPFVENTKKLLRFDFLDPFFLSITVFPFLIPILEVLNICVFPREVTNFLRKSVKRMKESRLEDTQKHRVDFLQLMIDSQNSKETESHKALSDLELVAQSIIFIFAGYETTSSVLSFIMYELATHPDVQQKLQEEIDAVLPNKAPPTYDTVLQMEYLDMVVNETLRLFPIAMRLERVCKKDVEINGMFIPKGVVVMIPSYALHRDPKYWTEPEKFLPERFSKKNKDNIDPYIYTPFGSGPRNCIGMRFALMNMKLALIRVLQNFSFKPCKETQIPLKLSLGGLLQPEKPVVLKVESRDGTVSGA
UniProt Q07343, whole entry: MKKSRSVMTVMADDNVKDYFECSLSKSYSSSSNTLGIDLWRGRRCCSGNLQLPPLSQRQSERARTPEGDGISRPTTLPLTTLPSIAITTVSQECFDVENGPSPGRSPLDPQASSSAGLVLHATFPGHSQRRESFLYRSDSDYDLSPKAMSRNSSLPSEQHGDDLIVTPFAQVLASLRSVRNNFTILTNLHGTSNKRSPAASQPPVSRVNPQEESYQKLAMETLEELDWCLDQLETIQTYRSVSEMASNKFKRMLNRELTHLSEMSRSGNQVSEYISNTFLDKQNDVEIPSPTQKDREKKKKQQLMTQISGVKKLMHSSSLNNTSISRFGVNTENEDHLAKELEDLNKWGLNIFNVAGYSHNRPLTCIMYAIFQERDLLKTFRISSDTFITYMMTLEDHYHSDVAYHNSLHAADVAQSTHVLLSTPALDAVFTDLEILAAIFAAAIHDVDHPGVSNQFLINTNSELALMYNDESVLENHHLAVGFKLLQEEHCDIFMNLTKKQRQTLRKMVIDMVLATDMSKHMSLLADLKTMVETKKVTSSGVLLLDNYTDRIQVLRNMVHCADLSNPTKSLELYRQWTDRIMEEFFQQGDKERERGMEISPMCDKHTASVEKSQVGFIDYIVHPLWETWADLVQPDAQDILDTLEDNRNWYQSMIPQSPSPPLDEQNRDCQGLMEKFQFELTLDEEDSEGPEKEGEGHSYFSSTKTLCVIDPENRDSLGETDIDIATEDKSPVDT
UniProt P63096, whole entry: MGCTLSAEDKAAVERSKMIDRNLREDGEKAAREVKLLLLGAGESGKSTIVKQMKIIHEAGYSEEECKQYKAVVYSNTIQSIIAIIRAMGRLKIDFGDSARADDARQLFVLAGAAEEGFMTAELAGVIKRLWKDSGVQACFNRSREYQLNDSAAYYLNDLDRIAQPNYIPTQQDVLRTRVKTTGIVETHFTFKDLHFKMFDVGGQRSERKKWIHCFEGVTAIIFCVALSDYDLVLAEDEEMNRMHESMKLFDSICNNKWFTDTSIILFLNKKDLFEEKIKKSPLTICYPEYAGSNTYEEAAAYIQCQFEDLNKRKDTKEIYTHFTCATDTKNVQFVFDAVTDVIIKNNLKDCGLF

Legend:
[1] = Cell Viability - Mesenchymal (AID 546); settings: mesenchymal cells viability, qHTS; at 91.7 µM (top of the series);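 further: cells exposed to compound for 40 hours before reading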
Summary of the method: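 CellTiter-Glo luminescence (intracellular ATP, 20 min room temperature) after 40 hr compound exposure at 37 °C of 1000 glomerulus-derived human kidney mesenchymal cells/well; AC50 values obtained by fitting qHTS concentration-response data to the Hill equation.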

[2] = Cellular Toxicity (caspase-3) HepG2 (AID 654); settings: HepG2 caspase-3 activation, luminescence, 0% = DMSO only, 100% = tamoxifen; at 92.2 µM (top of the series);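 further: cells exposed to compound for 16 hours before reading; 0% = DMSO alone and 100% = caspase signal from 100 µM tamoxifen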
Summary of the method: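 Luminescent Caspase-Glo 3/7 readout after 16 hr compound exposure of human hepatocellular carcinoma HepG2 cells at 37 °C; qHTS concentration-response, normalized DMSO = 0%, 100 uM tamoxifen = 100%; AC50 by standard Hill equation.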

[3] = Cellular Toxicity (caspase-3) Jurkat (AID 655); settings: Jurkat caspase-3 activation, luminescence, DMSO = 0%, tamoxifen = 100%; at 92.2 µM (top of the series);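 further: cells exposed to compound for 16 h at 37 °C before reading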
Summary of the method: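 Jurkat cells (5000/well) in complete medium exposed 16 h at 37 C; caspase-3/7 activity read by Caspase-Glo luminescence after 20 min at room temperature. Normalized to DMSO and 100 uM tamoxifen; AC50 from Hill fits.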

[4] = Cellular Toxicity (caspase-3) HUV-EC-C (AID 656); settings: HUV-EC-C cells, caspase-3 activation (apoptosis), vehicle = 0, 100 µM tamoxifen = 100%; at 92.2 µM (top of the series)
Summary of the method: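 HUV-EC-C cells (1000/well) in complete medium, compound-treated 16 h at 37 °C; caspase-3/7 activity read by Caspase-Glo 3/7 luminescence. Normalized to DMSO (basal) and 100 uM tamoxifen (100%); AC50 from Hill-equation concentration-response fits.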

[5] = Cellular Toxicity (caspase-3) SHSY5Y (AID 657); settings: SH-SY5Y caspase-3 activation, DMSO zero, 10 µM staurosporine = 100%; at 91.7 µM (top of the series)
Summary of the method: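 SH-SY5Y human neuroblastoma cells, 1500/well, exposed to compound for 16 hours at 37 °C in complete medium. Caspase-3/7 activity read by Caspase-Glo luminescence after 1 hr at room temperature, normalized to DMSO and 10 uM staurosporine; AC50 from Hill fit.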

[6] = Cellular Toxicity (caspase-3) BJ (AID 658); settings: BJ fibroblasts, luminescence, normalized: DMSO 0%, staurosporine 100%; at 91.7 µM (top of the series)
Summary of the method: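 Caspase-Glo 3/7 luminescence, read 1 hr after reagent at room temperature, in normal BJ fibroblasts exposed 16 hours at 37 °C. AC50 values from Hill-equation concentration-response, scaled between DMSO basal and 10 uM staurosporine as 100%.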

[7] = Cellular Toxicity (caspase-3) MRC-5 (AID 659); settings: MRC-5 cells, luminescence, normalized: DMSO 0%, 10 µM staurosporine 100%; at 91.7 µM (top of the series)
Summary of the method: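 Luminescent Caspase-Glo 3/7 read-out (1 h, room temperature) after a 16 h, 37 °C compound exposure of MRC-5 lung fibroblasts at 1500 cells/well. Concentration-response AC50 from Hill equation; 0% DMSO, 100% 10 uM staurosporine.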

[8] = Cellular Toxicity (caspase-3) Mesangial (AID 660); settings: mesangial cells, normalized: DMSO 0%, 100 µM tamoxifen 100%; at 91.7 µM (top of the series);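 further: cells exposed to compound for 16 h before the caspase read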
Summary of the method: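 Luminescent Caspase-Glo 3/7 readout (aminoluciferin substrate cleavage, 20 min RT) after 16 h compound exposure at 37 °C of normal human mesangial cells. Signal increase normalized between DMSO basal and 100 uM tamoxifen; Hill-equation AC50.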

[9] = Cellular Toxicity (caspase-3) SK-N-SH (AID 661); settings: SK-N-SH caspase-3 activation, qHTS, DMSO as zero, staurosporine as full; at 91.7 µM (top of the series)
Summary of the method: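 Luminescent Caspase-Glo 3/7 read-out after 16 hr compound exposure of SK-N-SH neuroblastoma cells at 37 °C. Signal increase normalized to DMSO (basal) and 10 uM staurosporine (100%); AC50 from Hill equation fits of qHTS concentration-response data.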

[10] = Cellular Toxicity (caspase-3) H-4-II-E (AID 663); settings: H-4-II-E rat hepatoma, scaled: DMSO 0%, 100 µM tamoxifen 100%; at 92.2 µM (top of the series);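 further: cells exposed to compound for 16 hr before readout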
Summary of the method: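 Caspase 3/7 activation measured by luminescent aminoluciferin substrate cleavage after 16 hr compound treatment of H-4-II-E cells in complete medium. Increase normalized between DMSO (basal) and 100 uM tamoxifen (100%); Hill-equation AC50 from concentration-response.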

[11] = Cellular Toxicity (caspase-3) Hek293 (AID 664); settings: HEK293 caspase-3 activation, DMSO = 0%, 100 µM tamoxifen = 100%; at 92.2 µM (top of the series);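 further: cells exposed to compound for 16 h at 37 °C before readout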
Summary of the method: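 Luminescent Caspase-Glo 3/7 readout (aminoluciferin release) in HEK293 cells after 16 h compound treatment, 37 °C. Normalization: DMSO = basal, 100 uM tamoxifen = 100% stimulation. Concentration-response fitted with standard Hill equation for AC50.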

[12] = Cellular Toxicity (caspase-3) N2a (AID 665); settings: N2a cells, luminescence, normalized: DMSO 0%, 10 µM staurosporine 100%; at 92.2 µM (top of the series);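 further: compound exposure lasted 16 h at 37 °C before readout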
Summary of the method: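 Luminescent Caspase-Glo 3/7 readout in N2a mouse neuroblastoma cells after 16 h compound exposure at 37 °C. Signal scaled to DMSO (basal) and 10 uM staurosporine (100%). Concentration-response fitted with Hill equation for AC50.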

[13] = Cellular Toxicity (caspase-3) NIH 3T3 (AID 666); settings: NIH 3T3 caspase-3 activation, apoptosis/toxicity, 0% DMSO, 100% is 100 µM tamoxifen; at 92.2 µM (top of the series);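 further: 0% = DMSO basal and 100% = 100 µM tamoxifen stimulation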
Summary of the method: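 NIH 3T3, 1000 cells/well, 5 hr settle then 16 hr compound at 37°C; Caspase-Glo 3/7, 20 min RT, luminescence. DMSO = basal, 100 uM tamoxifen = 100%. Hill-equation AC50, qHTS.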

[14] = Cellular Toxicity (caspase-3) Renal Proximal Tubule (AID 667); settings: renal proximal tubule cells, primary cells freshly taken from rat, solvent-only wells 0%, staurosporine 100%; at 91.7 µM (top of the series);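 further: cells exposed to compound for 16 hours at 37 °C before detection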
Summary of the method: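 Freshly isolated primary rat kidney proximal tubule cells, 1000/well, treated 16 hr at 37 °C, then Caspase-Glo 3/7 luminescence after 1 hr. Normalized to DMSO and 10 uM staurosporine; AC50 from Hill fit.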

[15] = biological target: Cytochrome P450 3A4 (Homo sapiens) (UniProt P08684); assay: qHTS Assay for Inhibitors and Substrates of Cytochrome P450 3A4 (AID 884); settings: recombinant CYP3A4, Luciferin-PPXE luminescence; at 57.1 µM (top of the series); further: on the % scale 0 is the no-effect control and ±100 the full control effect; nearly all actives have a fitted effect of over 50% in size
[16] = Cell Viability - LYMP2-001 (AID 921); settings: LYMP2-001 lymphoblastoid cell viability; at 92.2 µM (top of the series);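 further: cells exposed to compound for 24 h at 37 °C; 0% = DMSO only and full inhibition = tetraoctylammonium bromide control wells; nearly all actives have a fitted effect of over 70% in size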
Summary of the method: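 Human lymphoblastoid LYMP2-001 cells, 2500 per well, in complete medium, treated 24 h at 37 C. Viability from cellular ATP by CellTiter-Glo luminescence; AC50 from Hill-equation fits of qHTS concentration-response.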

[17] = biological target: 3',5'-cyclic-AMP phosphodiesterase 4B (Homo sapiens) (UniProt Q07343); assay: qHTS Assay for Inhibitors of PDE-IV (AID 607; active means well fitted activation curve with a large enough effect in the main read-out, with a control signal flat, not every such curve was filed as active; further: % of control where 0% means no effect); settings: HEK293 ACTOne CNG channel cells, membrane potential fluorescence; at 22.9 µM (top of the series)
Summary of the method: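 Cell-based read-out of cAMP via a modified cyclic nucleotide-gated channel and membrane potential dye (535/590 nm) in HEK293 cells expressing PDE4 endogenously. Compounds tested up to 22.9 uM final; 100 uM RO 20-1724 reference.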

[18] = biological target: Guanine nucleotide-binding protein G(i) subunit alpha-1 (Homo sapiens) (UniProt P63096); assay: qHTS Assay for Inhibitors of RGS12 GoLoco Motif Activity (Green Fluorophore) (AID 879); settings: Galphai1/FITC-RGS12 GoLoco peptide, fluorescence polarization; at 57.1 µM (top of the series);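 further: 0% = labeled peptide with Gαi1 and full inhibition = labeled peptide alone without protein; negative values mean loss of peptide binding seen as reduced polarization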
Summary of the method: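 A drop in FITC polarization marked displacement of the FITC-tagged RGS12 GoLoco peptide (10 nM) from Gαi1 (50 nM). Compounds were incubated 10 min at room temperature in Tris pH 7.5 buffer containing 150 mM NaCl, 0.1 mM GDP and 0.05% NP40; unlabeled peptide titration served as control.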

[19] = qHTS Assay for Identification of Small Molecule Antagonists for NFkB Signaling Pathway (AID 895; active means well fitted inhibition curve with a large enough effect in the signal ratio, with a control signal flat, not every such curve was filed as active; the % refers to the signal ratio; further: on the % scale 0 is the no-effect control and ±100 the full control effect); settings: NFkB beta-lactamase reporter cells, FRET ratio 460/530, stimulated with 10 pM TNF alpha; at 38.3 µM (top of the series)
[20] = qHTS Assay for Identification of Small Molecule Agonists for Hypoxia Response Element Signaling Pathway (AID 914; active means well fitted activation curve with a large enough effect in the signal ratio, with a control signal flat, not every such curve was filed as active; the % refers to the signal ratio; further: % of control where 0% means no effect); settings: ME-180 (cervical carcinoma) HRE-bla reporter, beta-lactamase ratio, CoCl2, 17 h; active compounds read high

O=[N+]([O-])[O-].[NH4+]
inactive: activity change, negative = cytotoxicity [1] -5.61% | caspase-3 activation [2] 1.24% | caspase-3 activation [3] -0.993% | caspase-3 activation [4] 0.542% | caspase-3 activation [5] 1.36% | caspase-3 activation [6] -0.785% | caspase-3 activation [7] 1.59% | caspase-3 activation [8] 0.97% | caspase-3 activation [9] -1.25% | caspase-3 activation [10] 0.41% | caspase-3 activation [11] 0.798% | caspase-3 activation [12] -2.06% | caspase-3 activation [13] -0.909% | caspase-3 activation [14] 3.15% | activity change, negative = inhibition [15] -6.93% | activity change, negative = cytotoxic [16] -13.3%

NNC(NN)NN.n1nc(-c2nn[nH]n2)n[nH]1
inactive: activation (PDE inhibition) [17] -2.65%

[NH4+].[O-][Cl+3]([O-])([O-])[O-]
inactive: activity change, negative = cytotoxicity [1] -6.63% | caspase-3 activation [2] 0.4% | caspase-3 activation [3] -0.48% | caspase-3 activation [4] -1.51% | caspase-3 activation [5] -3.2% | caspase-3 activation [6] -1.76% | caspase-3 activation [7] -1.35% | caspase-3 activation [8] 0.346% | caspase-3 activation [9] 1.09% | caspase-3 activation [10] 0.907% | caspase-3 activation [11] -1.16% | caspase-3 activation [12] 1.12% | caspase-3 activation [13] 0.204% | caspase-3 activation [14] 5.77% | activity change, negative = inhibition [15] -15.1% | activity change, negative = cytotoxic [16] -19.4%

N#[O+].[C-]#N.[C-]#N.[C-]#N.[C-]#N.[C-]#N.[Fe+2].[Na+].[Na+]
inactive: activation (PDE inhibition) [17] -1.12% | activity, negative = inhibition [18] 13.8% | activity change, negative = inhibition [19] -0.111% | activation [20] 17.2%

Cc1c([N+](=O)[O-])cccc1[N+](=O)[O-]
inactive: activity change, negative = cytotoxicity [1] 10.9% | caspase-3 activation [2] 0.625% | caspase-3 activation [3] 0.925% | caspase-3 activation [4] 0.912% | caspase-3 activation [5] 0.825% | caspase-3 activation [6] 0.633% | caspase-3 activation [7] -0.284% | caspase-3 activation [8] 0.303% | caspase-3 activation [9] -0.801% | caspase-3 activation [10] 0.0469% | caspase-3 activation [11] 0.492% | caspase-3 activation [12] -1.62% | caspase-3 activation [13] -8.11% | caspase-3 activation [14] -7.72% | activity change, negative = inhibition [15] 8.77% | activity change, negative = cytotoxic [16] -0.528%

Cc1cccc([N+](=O)[O-])c1[N+](=O)[O-]
inactive: activity change, negative = cytotoxicity [1] -2.61% | caspase-3 activation [2] 0.447% | caspase-3 activation [3] 5.92% | caspase-3 activation [4] -3.7% | caspase-3 activation [5] 1.28% | caspase-3 activation [6] 0.395% | caspase-3 activation [7] -1.92% | caspase-3 activation [8] 0.672% | caspase-3 activation [9] 0.128% | caspase-3 activation [10] 0.0975% | caspase-3 activation [11] -0.202% | caspase-3 activation [12] -2.55% | caspase-3 activation [14] -4.2% | activity change, negative = inhibition [15] -3.15% | activity change, negative = cytotoxic [16] -15.5%

CCN(CCCl)Cc1ccccc1C
inactive: activity change, negative = inhibition [15] -20%
